Assay results reported in US8795979B2, “Hydrolase enzyme substrates and uses thereof” (General Atomics, priority 2011, dated 2014).

Test system: aryl alcohol oxidase (AAO)
Test: Kinetic constants of AAO
Assay type: biochemical
Conditions: AAO purified from Pleurotus eryngii

With COc1ccc(CO)cc1 [p-anisyl-OH] the “Kp-anisyl-OH (AAO)” value was 37 ± 8 µM.
